{
  "sequences": {"note": "Protein sequences, listed by entry. Tags and fused reporters are not part of them. Residues count along the entry.", "UniProt P05112, 25-153 limits assumed": "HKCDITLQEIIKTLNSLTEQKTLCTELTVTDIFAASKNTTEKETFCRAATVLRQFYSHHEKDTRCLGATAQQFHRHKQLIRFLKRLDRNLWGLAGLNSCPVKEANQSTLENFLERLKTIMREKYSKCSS"},
  "source": "patent US12043621B2",
  "about": "“Small molecule inhibitors of Interleukin-4” (Trustees of Boston University, priority 2020, dated 2024)",
  "biological_target": "IL-4 (Homo sapiens, UniProt P05112)",
  "experiment": "HEK-Blue IL-4/IL-13 cell-based reporter (SEAP) IL-4 inhibition assay",
  "conditions": "percent activity in HEK-Blue IL-4/IL-13",
  "experimental": "HEK-Blue IL-4/IL-13 cells were purchased from Invivogen and maintained in DMEM complete with 10% fetal bovine serum, 10 μg/ml of blasticidin and 100 μg/ml of Zeocin, 100 μg/mL Normocin, and 100 U/mL-100 μg/mL Pen-Strep. Cells used for assays were between passages 12 and 18. […] HEK-Blue IL-4/IL-13 cells were trypsinized, spun down, and resuspended in DMEM with 10% heat-inactivated FBS, and 100 U/mL-100 μg/mL Pen-Strep at a concentration of 3.125E5/mL. 160 μL of the cell suspension was added to each well of a 96 well plate, avoiding the edges of the plate and equilibrated in an incubator for 1 hour. After 2 hours, 40 μL of the small molecule/IL-4 solution was added to each well. Each measurement performed in quadruplicate. Cells were incubated for 20 hours at 37° C./5% CO2. […] The optical density was then read at 650 nm with a Molecular Devices SpectraMax M5 Microplate Reader. Data was plotted and analyzed in GraphPad Prism 8.\nHEK-Blue IL-4/IL-13 cells were purchased from Invivogen and maintained in DMEM complete with 10% fetal bovine serum, 10 μg/ml of blasticidin and 100 μg/ml of Zeocin, 100 μg/mL Normocin, and 100 U/mL-100 μg/mL Pen-Strep. […] Prior to screening small molecules, the SEAP production induced by IL-4 alone was tested in the cells (FIG. 13) and determined to be 0.3 ng/mL. […]",
  "data": [
    {"smiles": "COc1ccc(-c2nc(N)c(C#N)c(-c3ccc(O)c(O)c3)c2C)cc1", "values": [
      {"measurement": "Activity at 1 uM", "setting": "1 uM", "result": 81.51},
      {"measurement": "Activity at 10 uM", "setting": "10 uM", "result": 3.225}
    ]}
  ]
}
